Results: US9365563B2, “TRPV1 antagonists including dihydroxy substituent and uses thereof” (Purdue Pharma L.P., priority 2007, dated 2016)

Chains of the proteins cited; added tags and fusions are not shown.
UniProt Q8NER1, whole entry: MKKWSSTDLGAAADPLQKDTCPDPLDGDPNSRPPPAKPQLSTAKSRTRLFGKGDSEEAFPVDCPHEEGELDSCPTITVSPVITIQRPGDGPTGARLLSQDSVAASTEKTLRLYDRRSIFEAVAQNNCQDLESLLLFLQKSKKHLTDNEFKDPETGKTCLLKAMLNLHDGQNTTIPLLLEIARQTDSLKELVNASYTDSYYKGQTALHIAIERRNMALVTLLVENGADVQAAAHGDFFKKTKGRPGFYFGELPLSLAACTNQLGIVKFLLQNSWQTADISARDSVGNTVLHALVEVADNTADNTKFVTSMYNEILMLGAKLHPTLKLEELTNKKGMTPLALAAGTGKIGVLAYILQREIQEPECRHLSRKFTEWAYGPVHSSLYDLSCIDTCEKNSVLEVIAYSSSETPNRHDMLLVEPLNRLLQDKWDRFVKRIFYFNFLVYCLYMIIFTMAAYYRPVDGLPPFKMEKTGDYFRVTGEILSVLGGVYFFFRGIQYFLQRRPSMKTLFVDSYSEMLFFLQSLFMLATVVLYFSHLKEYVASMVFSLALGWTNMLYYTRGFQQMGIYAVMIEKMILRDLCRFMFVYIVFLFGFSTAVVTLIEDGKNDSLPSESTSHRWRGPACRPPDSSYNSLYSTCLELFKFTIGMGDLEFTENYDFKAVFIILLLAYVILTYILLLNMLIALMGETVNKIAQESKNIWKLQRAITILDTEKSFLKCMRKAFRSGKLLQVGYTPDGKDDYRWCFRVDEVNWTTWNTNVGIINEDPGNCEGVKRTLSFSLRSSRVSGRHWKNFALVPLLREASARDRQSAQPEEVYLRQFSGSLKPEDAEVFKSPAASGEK

Target: human TRPV1 (Homo sapiens (Human), UniProt Q8NER1)
Assay: pH-based assay, Protocol 2 (hpH-CHO)
Format: cell-based
Conditions: TRPV1/CHO cells, pH 5.0-5.1; mean ± SEM; read-out: TRPV1 IC50 Potency Human pH CHO (hpH-CHO)
Excerpt: For Protocol 2, a Chinese Hamster Ovary cell line (CHO) that has been engineered to constitutively express human recombinant TRPV1 was used (TRPV1/CHO cells). The TRPV1/CHO cell line was generated as described below.
The resulting PCR products were purified from agarose gels using Gel Band Purification Kit (GE Healthcare Bioscience) and were subcloned into pCR-Blunt vector (Invitrogen). The cloned cDNA was fully sequenced using a fluorescent dye-terminator reagent (BigDye Terminator ver3.1 Cycle Sequencing Kit, Applied Biosystems) and ABI Prism 3100 genetic analyzer (Applied Biosystems). The pCR-Blunt vector containing the hTRPV1 cDNA was subjected to restriction digestion with EcoR1. […] The sequence of the cDNA encoding TRPV1 is available at GenBank accession number AJ277028.
CHO-K1 cells were maintained in growth medium consisting of α-MEM, 10% FBS (Hyclone), and 100 IU/mL of penicillin-100 μg/mL of streptomycin mixed solution (Nacalai Tesque, Japan) at 37° C. in an environment of humidified 95% air and 5% CO2. […] 24 hr after transfection, neomycin-resistant cells were selected using 1 mg/mL G418 (Nacalai Tesque). […]
(5) The Fura-2 fluorescent intensity was monitored at a wavelength of 340 nm and at 380 nm, respectively, at a rate of 0.5 Hz for a total of 240 seconds.

- IC50: 54.3 ± 5.9 nM
SMILES: CCC(O)c1cnc(C2=CCN(C(=O)Nc3ccc(C(F)(F)F)cc3)CC2)c(Cl)c1 (stereo not shown) [Compound U2]
